Test results from US5770717.
“And” between values parts separate entries of the source, which are not always exact repeats. Equal entries are not always repeated.

Target: activation domain-fused yeast RPB4 protein (RPB4 in JG4-5) (yeast (Saccharomyces cerevisiae)) (UniProt P20433)
Test: two-hybrid interaction trap in yeast, beta-galactosidase assay with and without activation domain-fused RPB4

LexA-hsRPB7 fusion protein was tested, and the degree of enhancement of activation (beta-galactosidase assay) was 2 fold and 3 fold.
